Literature values as cited in PMC9977316, “The kidney drug transporter OAT1 regulates gut microbiome–dependent host metabolism” (JCI Insight, 2023).

Target: T1, OAT1 (Homo sapiens, UniProt Q4U2R8)
T1 sequence (Q4U2R8 1-563): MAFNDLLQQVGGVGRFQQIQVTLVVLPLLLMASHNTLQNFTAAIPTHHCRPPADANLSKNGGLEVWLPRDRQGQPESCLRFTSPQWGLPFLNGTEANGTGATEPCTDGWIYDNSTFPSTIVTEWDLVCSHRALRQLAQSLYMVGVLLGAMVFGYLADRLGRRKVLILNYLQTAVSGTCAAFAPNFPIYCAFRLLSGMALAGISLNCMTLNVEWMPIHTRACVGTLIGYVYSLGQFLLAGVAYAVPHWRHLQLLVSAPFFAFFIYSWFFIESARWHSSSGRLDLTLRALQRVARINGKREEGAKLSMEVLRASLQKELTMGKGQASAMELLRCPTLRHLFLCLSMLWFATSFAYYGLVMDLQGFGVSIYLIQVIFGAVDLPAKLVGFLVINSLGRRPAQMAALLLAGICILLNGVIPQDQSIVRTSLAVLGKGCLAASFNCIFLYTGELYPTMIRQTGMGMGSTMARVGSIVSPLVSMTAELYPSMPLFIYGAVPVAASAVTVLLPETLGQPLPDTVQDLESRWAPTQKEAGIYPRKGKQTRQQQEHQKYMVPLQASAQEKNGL
Set-up: The full-length protein was expressed as GFP fusion in HEK293 cells to check for protein expression; GFP; FLAG (inferred from capture on anti-flag antibody beads); made in house; host or cells: HEK293 cells, third-generation lentiviral vector
Details: cited from earlier work

Indoleacetate
In vitro cell–based transport assay: × (17)
